Among the data in ChEMBL document CHEMBL4622845, “p62/SQSTM1, a Central but Unexploited Target: Advances in Its Physiological/Pathogenic Functions and Small Molecular Modulators” (J Med Chem, 2020) are IC50 and Ki values, retold here.

Sequences of proteins named here, by UniProt entry; tags and fusion partners are left off. A change or cut given only in a name is not applied to a line headed by its entry.
UniProt P23443: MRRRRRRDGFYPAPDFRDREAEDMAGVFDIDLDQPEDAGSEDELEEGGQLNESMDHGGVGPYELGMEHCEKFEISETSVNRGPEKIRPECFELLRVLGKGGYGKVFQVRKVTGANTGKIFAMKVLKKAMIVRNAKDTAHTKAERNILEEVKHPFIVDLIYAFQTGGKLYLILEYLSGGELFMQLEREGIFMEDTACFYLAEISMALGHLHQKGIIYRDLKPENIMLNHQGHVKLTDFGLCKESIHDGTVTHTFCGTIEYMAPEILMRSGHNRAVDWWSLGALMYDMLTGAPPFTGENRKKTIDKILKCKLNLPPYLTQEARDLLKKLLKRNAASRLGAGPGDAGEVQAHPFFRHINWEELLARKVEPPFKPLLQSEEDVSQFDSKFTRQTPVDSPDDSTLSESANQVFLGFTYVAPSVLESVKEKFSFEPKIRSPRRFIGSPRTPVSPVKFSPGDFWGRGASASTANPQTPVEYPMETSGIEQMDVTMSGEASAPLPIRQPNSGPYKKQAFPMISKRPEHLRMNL

The target in the experiment is Ribosomal protein S6 kinase beta-1 (Homo sapiens, UniProt P23443).

In general, IC50 refers to the concentration needed to halve the response being measured. High values mean weaker potency, low ones greater potency. The term Ki denotes a measure of affinity in units of concentration, obtained from inhibition or displacement.

As for `CCc1cncnc1N1CCN(Cc2nc3cc(C(F)(F)F)ccc3[nH]2)CC1`, the IC50 was 160 nM and the Ki is 20 nM.
